The numbers were not newly measured in patent publication US20240033282A1, “METHOD FOR IDENTIFYING AND/OR FOR OBTAINING AN ACTIVE SUBSTANCE FOR THE TREATMENT AND THERAPY OF FAMILIAL AMYOTROPHIC LATERAL SCLEROSIS, AND USE OF AN ACTIVE SUBSTANCE FOR THE TREATMENT OF THIS DISEASE” (Forschungszentrum Juelich GmbH, priority 2020, published 2024), which cites them from elsewhere.

The data set concerns ALS. The following applies: cited from earlier work.

Take `Nc1nc2ccc(OC(F)(F)F)cc2s1` [riluzole]: the “increase in the 1-year survival rate” value was 9% and the survival advantage is 2-3 months.
